Test results taken from patent US20090318402A1, “RUTHENIUM (II) COMPOUNDS” (The University Court of the University of Edinburg, priority 2006, published 2009).

What was measured:
[1] = Aqueous solution chemistry followed by 1H NMR (hydrolysis, arene loss); type: physicochemical; settings: for speciation: arene loss / speciation: hydrolysis / speciation: intact cation: after 24 h; for half life of decomposition of the intact cation: pseudo first order
Experimental: NMR-Spectroscopy: All ^1H NMR experiments for characterization of synthesized compounds were recorded on either a Bruker DMX 500 MHz spectrometer equipped with TBI [^1H, ^13C, ^15N] probe-head, equipped with z-field gradients or a Bruker DPX 360 MHz spectrometer. The proton signals were calibrated against the residual solvent peak, δ 7.27 (chloroform), 2.07 (acetone) and 2.52 (DMSO). The 2D ^1H-TOCSY and 2D ^1H COSY experiments for characterization were run on a Bruker DMX 500 MHz spectrometer. 2D-^1H ROESY experiment for characterization was recorded on a Bruker AVA […] spectrometer equipped with a with a TXI [^1H, ^13C, ^15N] probe-head, equipped with z-field gradients. All pH titration experiments were recorded on a Bruker AVA 600 MHz spectrometer where dioxan was added as an internal reference (δ 3.75, in 100% D2O). The water was suppressed using a 1D Double Pulse Field Gradient Spin Echo (DPFGSE) experiment. The aqueous solution behaviour was recorded on a Bruker bio 600 MHz spectrometer equipped with a cryoprobe and the water was suppressed using a 1D Double Pulse Field Gradient Spin Echo (DPFGSE) experiment. The chemical shifts were measured relative to dioxin (internal reference δ 3.75, in 90% H2O/10% D2O). All spectra were recorded using 5 mm quartz tubes at 298 K unless stated otherwise. All NMR data were processed using Xwin-NMR (Version 2.0 Bruker UK Ltd).
The complex was dissolved in H2O/D2O, the pH was taken, and NMR spectra were recorded at uniform time intervals at a fixed temperature using a multi-zg kinetic experiment program. After acquisition, Electrospray Mass Spectrometry was performed on a portion of the NMR solution.
The solution chemistry was followed by ^1H NMR unless stated otherwise.

[2] = Solution chemistry in phosphate buffer mimicking cell test conditions (NMR, ESI-MS); type: physicochemical; settings: 100 μM, 10 mM phosphate buffer, 95% D2O, 5% MeOD, 310 K, 24 h; pH* 7.35 (8), 7.40 (10), 7.31 (13), 7.38 (21)
Experimental: Solutions of four ruthenium complexes (8, 10, 13 and 21) in MeOD were diluted down in 10 mM phosphate buffer/D2O to give a final concentration of 100 μM ruthenium (95% D2O, 5% MeOD) and NMR spectra were recorded at 310 K initially (time ca. 15 minutes) and after 24 h. The pH* of the samples was 7.35 (8), 7.40 (10), 7.31 (13) and 7.38 (21), The samples were kept in the water bath at 310 K between acquisitions. After 24 hour, ESI-MS was performed on the samples. These conditions were chosen to mimic pH, concentration, exposure time and temperature for the biological cell tests.

[3] = 50 μM, 95% H2O, 5% MeOH, pH 2.25
[4] = saturated solution, 90% H2O/10% D2O, pH=ca.5.8, 25° C., after 24 hours
[5] = saturated solution, 90% H2O/10% D2O, pH=ca. 4.5, 25° C., after 24 hours
[6] = 100 μM, 95% D2O, 5% MeOD, pH=7, 37° C., over 24 hours
[7] = 90% H2O/10% D2O, ca. 100 μM, initial pH 5.46, 310 K
[8] = saturated solution, 90% H2O/10% D2O, 37° C. over 24 hours
[9] = 100 μM, 99.5% D2O, 0.5% DMSO, 115 mM NaCl, 37° C., after 24 hours
[10] = 90% H2O/10% D2O, ca. 100 μM, initial pH 6.42, 310 K
[11] = 100 μM, 90% H2O/10% D2O, pH=ca 5.8, 25° C., after 24 hours
[12] = 100 μM, 90% H2O/10% D2O, pH=ca 5.8, 37° C., after 24 hours

[Ru(THN)(4-phenol-azo pyridine)Cl]PF6 [Compound 19]
hydrolyzed species [1, 4]: 13% | intact chloride species [1, 4]: 87%

[Ru(benzene)(3(5)-(4-dimethylaminophenylazo)pyrazole)Cl]PF6 [Compound 17]
hydrolysed [1, 5]: 40% | intact chloride complex [1, 5]: about 60% | intact chloride complex remaining ([1]; saturated solution, 90% H2O/10% D2O, pH=ca. 4.5, 25° C., initially (time=45 mins)): ca. 77%

[Ru(bip)(2-phenyl-azo pyridine)I]PF6 [Compound 7]
hydrolysis [1, 6]: No hydrolysis occurred | loss of the arene from the complex [1, 6]: about 5%

[Ru(biphenyl)(4-phenol-azo pyridine)Cl]PF6 [Compound 12]
speciation: arene loss [1, 7]: 64% | speciation: hydrolysis [1, 7]: 5% | speciation: intact cation [1, 7]: 31% | half life of decomposition of the intact cation [1, 7]: 13.05 h

[Ru(biphenyl)(4-phenol-azo pyridine)I]PF6 [Compound 13]
change of complex in solution [1, 8]: No change occurred | hydrolysis [2]: no hydrolysis had occurred | half live for hydrolysis [3]: 2.14 h

[Ru(biphenyl)(Azpy-NMe2)Cl]PF6 [Compound 9]
arene loss [1, 9]: ca. 40% | intact chloro complex [1, 9]: about 50% | speciation: arene loss [1, 10]: 67% | speciation: hydrolysis [1, 10]: 9% | speciation: intact cation [1, 10]: 24% | half life of decomposition of the intact cation [1, 10]: 20.27 h | changes in the spectrum over time ([1]; saturated solution (filtered) in 100% D2O, 25° C. over 25 hours): No changes occurred

[Ru(biphenyl)(Azpy-NMe2)I]PF6 [Compound 10]
change of complex in solution [1, 8]: No change occurred | hydrolysis [2]: no hydrolysis had occurred

[Ru(p-cymene)(4-phenol-azo pyridine)Cl]PF6 [Compound 11]
complex after arene loss [1, 11]: 20% | hydrolysed product [1, 11]: 10% | initial chloro form [1, 11]: 69% | hydrolysed [1, 12]: 31% | initial chloro complex [1, 12]: 32% | minus arene [1, 12]: 36% | half life of decomposition of the intact cation ([1]; 100 μM, 90% H2O/10% D2O, pH=ca 5.8, 310 K): 21.03 h

[Ru(p-cymene)(4-phenol-azo pyridine)I]PF6 [Compound 21]
change of complex in solution ([1]; 100 μM, 90% H2O/10% D2O, pH=ca. 6.5, 37° C. over 24 hours): No change occurred | hydrolysis [2]: no hydrolysis had occurred
